Experimental data taken from patent publication US20150374673A1, “Combination Therapy for the Treatment of Nosocomial Pneumonia” (priority 2013, published 2015).

Tested on: K. pneumoniae
Test: Checkerboard assay, mean FICI
Format: cell-based
Method: All MIC determinations including those performed in the checkerboard assay were done in cation-adjusted Mueller-Hinton broth (purchased from Becton Dickinson, Oxford UK).
Initial MIC data were determined by microbroth dilution methods as recommended by CLSI (2012b). Checkerboards were made in accordance with the method given by Pillai et. al., ? Antimicrobial Combinations in Antibiotics, LABORATORY MEDICINE (Lorian Ed., 3rd Ed. (2003)) p. 365-440 as per standard microbroth dilution tests but with agents in combination. […] A final avibactam concentration of 4 mg/L was used throughout the study. Antibacterial agents were combined into microtitre plates using the Evolution III liquid handling system.
Checkerboard plates were inoculated and incubated in accordance with CLSI guidelines (2012b) at 35±2° C. in ambient air for 16-20 h. MICs were recorded the following day as the lowest concentration or combination of concentrations required to inhibit all visible growth. From the MIC data, FICIs were calculated for each checkerboard according to the method of Meletiadis et. al., Defining Fractional Inhibitory Concentration Index Cutoffs for Additive Interactions Based on Self-Drug Additive Combinations, Monte Carlo Simulation Analysis and in vitro-in vivo Correlation Data for Antifungal Drug Combinations Against Aspergillus fumigatus, AAC 54:602-09 (2010).
FICI=FICA+FICB=(CA/MICA)+(CB/MICB)
As each checkerboard gives a number of FICI values, an arithmetic mean is calculated from all values to give the mean FICI for two agents combined against one isolate. Mean FICIs were interpreted by the following criteria given by Odds (2003) which are now the accepted criteria by most journals: […]

With `CC(C)(O/N=C(\C(=O)N[C@@H]1C(=O)N2C(C(=O)[O-])=C(C[n+]3ccccc3)CS[C@H]12)c1csc(N)n1)C(=O)O` [ceftazidime, (6R,7R)-7-[[(2Z)-2-(2-amino-1,3-thiazol-4-yl)-2-(1-hydroxy-2-methyl-1-oxopropan-2-yl)oxyiminoacetyl]amino]-8-oxo-3-(pyridin-1-ium-1-ylmethyl)-5-thia-1-azabicyclo[4.2.0]oct-2-ene-2-carboxylate pentahydrate] the “Mean FICI” value (with Col, isolate 13 K. pneumoniae KPC-3) was 1.26, the “Mean FICI” value (with Lev, isolate 11 K. pneumoniae CTX-M-15) was 1.21 and the “Mean FICI” value (with Lev, isolate 12 K. pneumoniae SHV-12) was 1.16. The “Mean FICI” value (with Lev, isolate 13 K. pneumoniae KPC-3) was 1.24, the “Mean FICI” value (with Lev, isolate 14 K. pneumoniae KPC-3) was 1.26 and the “Mean FICI” value (with Lev, isolate 15 K. pneumoniae KPC-2) was 1.26. For the same compound, the “Mean FICI” value (with Tig, isolate 9 K. pneumoniae Basal MICs) was 1.16, the “Mean FICI” value (with Tig, isolate 10 K. pneumoniae TEM-4) was 1.32 and the “Mean FICI” value (with Tig, isolate 15 K. pneumoniae KPC-2) was 1.23.
